In patent US12171768B2, “IRAK4 degraders and uses thereof” (priority 2021, dated 2024):
Read-outs that look alike come from different tables or passages of the source.

Columns and labels:
[1] = dog NOAEL, relative to predicted human AUC
[2] = rat NOAEL, relative to predicted human AUC

Structure (SMILES): Cn1c(=O)n([C@@H]2CCC(=O)NC2=O)c2cccc(C#CCOC3CCN(C[C@H]4CC[C@H](n5cc(NC(=O)c6cnn7ccc(N8C[C@H]9C[C@@H]8CO9)nc67)c(C(F)F)n5)CC4)CC3)c21 [Compound A, 5-((1R,4R)-2-oxa-5-azabicyclo[2.2.1]heptan-5-yl)-N-(3-(difluoromethyl)-1-((1r,4R)-4-((4-((3-(1-(2,6-dioxopiperidin-3-yl)-3-methyl-2-oxo-2,3-dihydro-1H-benzo[d]imidazol-4-yl)prop-2-yn-1-yl)oxy)piperidin-1-yl)methyl)cyclohexyl)-1H-pyrazol-4-yl)pyrazolo[1,5-a]pyrimidine-3-carboxamide]
- Exposure safety margin for the starting dose of 25 mg based on AUC at NOAEL [1]: 159 fold
- Exposure safety margin for the starting dose of 25 mg based on AUC at NOAEL [2]: 79 fold
